Reference: ChEMBL document CHEMBL4371059 (J Med Chem, 2019)

Legend:
Mu-type opioid receptor = Mu-type opioid receptor (Cavia porcellus, UniProt P97266); experiment: Displacement of [3H]DAMGO from MOR in guinea pig brain membranes at 1 uM after 120 mins by scintillation counting method relative to control; conditions: 2 h
[1] = target: Kappa-type opioid receptor (Homo sapiens, UniProt P41145); experiment: Agonist activity at Tango-KOR (unknown origin) expressed in HTLA cells harboring TEV-fused-beta-arrestin 2 assessed as increase in beta arrestin 2 recruitment after overnight incubation by BrightGlo reagent based assay
T-cell [2] = experiment: Inhibition of PMA/ionomycin-stimulated OPRK-deficient mouse T cells activation assessed as CD44-positive cells at 5 ug/ml treated for 48 hrs starting from 12 hrs post PMA/ionomycin stimulation by flow cytometry (reference value: […]); design: scale not given: the % may be the effect or the level left
T-cell [3] = experiment: Inhibition of PMA/ionomycin-stimulated OPRK-deficient mouse T cells activation assessed as CD69-positive cells at 5 ug/ml treated for 48 hrs starting from 12 hrs post PMA/ionomycin stimulation by flow cytometry (reference value: 45.1%); design: scale not given: the % may be the effect or the level left

Structure (SMILES)	inhibition (INH) (Mu-type opioid receptor) [%]	EC50 [1] [nM]	Activity (T-cell [2]) [%]	Activity (T-cell [3]) [%]
O=C(Cc1ccc(Cl)c(Cl)c1)N1CCN[C@H]2CCC[C@H](N3CCCC3)[C@H]21 [listing 1 of 2 here]	28			
O=C(Cc1ccc(Cl)c(Cl)c1)N1CCN(C(=O)COCCF)[C@H]2CCC[C@H](N3CCCC3)[C@H]21		227		
CCN1CCN(C(=O)Cc2ccc(Cl)c(Cl)c2)[C@H]2[C@@H]1CCC[C@@H]2N1CCCC1	> 50	12		
O=C(Cc1ccc(Cl)c(Cl)c1)N1CCN(Cc2cn(CCF)nn2)[C@H]2CCC[C@H](N3CCCC3)[C@H]21 [listing 1 of 2 here]			7.8	35.4
O=C(Cc1ccc(Cl)c(Cl)c1)N1CCN[C@H]2CCC[C@H](N3CCCC3)[C@H]21 [listing 2 of 2 here]			6.7	40.6
CC(C)(C)OC(=O)N1CCN(C(=O)Cc2ccc(Cl)c(Cl)c2)[C@@H]2[C@@H](N3CCCC3)CCC[C@@H]21	> 50	42		
O=C(Cc1ccc(Cl)c(Cl)c1)N1CCN(C(=O)Cn2cc(CCCF)nn2)[C@H]2CCC[C@H](N3CCCC3)[C@H]21	> 50			
O=C(Cc1ccc(Cl)c(Cl)c1)N1CCN(Cc2ccc(F)cc2)[C@H]2CCC[C@H](N3CCCC3)[C@H]21	0	247		
COC(=O)N1CCN(C(=O)Cc2ccc(Cl)c(Cl)c2)[C@@H]2[C@@H](N3CCCC3)CCC[C@@H]21	0			
O=C(Cc1ccc(Cl)c(Cl)c1)N1CCN(Cc2cn(CCF)nn2)[C@H]2CCC[C@H](N3CCCC3)[C@H]21 [listing 2 of 2 here]	> 50			
CCCN1CCN(C(=O)Cc2ccc(Cl)c(Cl)c2)[C@@H]2[C@@H](N3CCCC3)CCC[C@@H]21 (racemic)	> 50	7.9		
CN1CCN(C(=O)Cc2ccc(Cl)c(Cl)c2)[C@H]2[C@@H]1CCC[C@@H]2N1CCCC1	0	17		
CCCCN1CCN(C(=O)Cc2ccc(Cl)c(Cl)c2)[C@@H]2[C@@H](N3CCCC3)CCC[C@@H]21 (racemic)	> 50	33		
